Measurements published in patent US6214615A (The United States of America as represented by the …, priority 1996, dated 2001).

Sequences of proteins named here, by UniProt entry; tags and fusion partners are left off. Residues count along the entry.
UniProt P14416, 1-414 isoform P14416-2: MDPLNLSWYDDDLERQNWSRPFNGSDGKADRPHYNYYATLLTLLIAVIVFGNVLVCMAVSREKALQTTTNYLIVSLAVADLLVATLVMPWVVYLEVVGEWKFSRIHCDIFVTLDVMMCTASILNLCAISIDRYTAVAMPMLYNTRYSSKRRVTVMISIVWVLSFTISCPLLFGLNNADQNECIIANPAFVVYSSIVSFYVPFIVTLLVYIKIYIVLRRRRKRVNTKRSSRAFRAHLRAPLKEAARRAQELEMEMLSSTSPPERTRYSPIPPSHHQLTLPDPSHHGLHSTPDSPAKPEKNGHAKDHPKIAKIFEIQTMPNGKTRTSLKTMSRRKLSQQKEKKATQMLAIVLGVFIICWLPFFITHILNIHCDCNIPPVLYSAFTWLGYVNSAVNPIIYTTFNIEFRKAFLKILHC

Target: human dopamine D2 receptor (Homo sapiens, UniProt P14416)
Experiment: Saturation radioligand binding to membranes of transfected COS-7 cells
Set-up: rescreened with the S1 probe alone to identify those most likely to be full length; expressed in transfected cells; host or cells: COS-7 cells (transient, 16A-pCD-PS DNA)
Conditions: 30 min at 30° C., COS-7 transfected with 16A-pCD-PS

Kd: 3.2 nM
SMILES: CCN1CCC[C@H]1CNC(=O)c1c(O)c(Cl)cc(Cl)c1OC [^3 H-raclopride]
